The list shows a part of the results, in another mix than the full data. The source made the active and inactive calls.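 The calls were made as follows: active = activation above a cutoff set at the mean activation of all tested compounds plus 3 SD (cut at about 54% in these data); inactive = the rest, inconclusive results apart.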
molecular target: Sphingosine 1-phosphate receptor 1 (Homo sapiens) (UniProt P21453); assay: activation or potentiation of human S1P1 signaling – cell-based, primary and confirmation screens, CRE-bla reporter, primary screen (AID 449); conditions: S1P1 CRE-bla cells, forskolin, beta-lactamase FRET, potentiator mode; at 9.5 µM; hits give high values; 100% = saturating reference agonist, 0% = basal; S1P1 agonist co-added at EC20, 2 nM;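 also: forskolin at 4 µM as EC80 and the EC20 agonist is SEW2871; 100% = SEW2871 at its EC100 plus forskolin at EC80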

By UniProt entry, the sequences of proteins in these tests, tags left out.
UniProt P21453, whole entry: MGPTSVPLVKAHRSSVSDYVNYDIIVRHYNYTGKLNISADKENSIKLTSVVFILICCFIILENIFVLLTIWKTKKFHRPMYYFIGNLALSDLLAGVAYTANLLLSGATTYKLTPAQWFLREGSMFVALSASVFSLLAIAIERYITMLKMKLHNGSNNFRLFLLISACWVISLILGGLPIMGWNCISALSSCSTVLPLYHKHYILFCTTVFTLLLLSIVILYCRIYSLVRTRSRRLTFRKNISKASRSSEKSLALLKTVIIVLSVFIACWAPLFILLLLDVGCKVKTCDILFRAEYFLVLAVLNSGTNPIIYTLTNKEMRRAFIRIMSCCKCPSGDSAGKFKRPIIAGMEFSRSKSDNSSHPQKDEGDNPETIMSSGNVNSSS

Compound | activation
N#CC1(Nc2ccccc2)CCN(CCc2ccccc2)CC1 | inactive: -15.8%
COc1ccc(NC2CCN(CCc3ccccc3)CC2)c(OC)c1 | inactive: -18.8%
O=C(OC1CN2CCC1CC2)C1c2ccccc2Oc2ccccc21 (configuration not stated) | inactive: -11.6%
CCOc1ncccc1C(=O)NCC1(N2CCOCC2)CCCCC1 | inactive: -13.6%
CCC(CO)(C(=O)OC1CN2CCC1CC2)c1ccccc1 (configuration not stated) | inactive: -15.9%
Fc1ccccc1NC1CCN(Cc2ccccc2)CC1 | inactive: -15.2%
N/C(=N\O)c1c(N)no[n+]1[O-] | inactive: -4.2%
